Measured values as given in patent US9676721B2, “Compounds and compositions for the inhibition of NAMPT” (FORMA TM, LLC, priority 2010, dated 2017).

Protein sequences, listed by entry. Tags and fused reporters are not part of them. Lines headed by an entry give the natural chain unless they say otherwise; changes in a name come on top.
UniProt P43490: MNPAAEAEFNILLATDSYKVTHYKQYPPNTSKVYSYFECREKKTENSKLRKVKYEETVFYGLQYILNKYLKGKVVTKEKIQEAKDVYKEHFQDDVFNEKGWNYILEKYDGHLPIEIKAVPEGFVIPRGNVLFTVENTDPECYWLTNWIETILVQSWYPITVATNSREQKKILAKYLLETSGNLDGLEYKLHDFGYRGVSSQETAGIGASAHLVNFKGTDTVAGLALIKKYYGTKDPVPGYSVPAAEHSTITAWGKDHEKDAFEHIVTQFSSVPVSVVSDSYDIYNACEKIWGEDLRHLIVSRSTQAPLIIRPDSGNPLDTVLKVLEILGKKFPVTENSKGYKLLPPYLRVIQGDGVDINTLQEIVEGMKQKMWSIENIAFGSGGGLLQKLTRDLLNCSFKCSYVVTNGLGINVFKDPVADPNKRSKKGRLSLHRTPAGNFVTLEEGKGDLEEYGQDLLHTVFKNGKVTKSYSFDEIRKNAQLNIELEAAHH

Target: NAMPT (Homo sapiens (Human), UniProt P43490)
Assay: Biochemical Inhibition Assay (NAMPT enzymatic reaction, NMN by mass spectrometry)
Details: recombinant His-tagged NAMPT 33 nM, 1 μM NAM, 30 minutes; read-out: Biochem IC50
Description: Biochemical Inhibition Assay NAMPT Protein Purification Recombinant His-tagged NAMPT was produced in E. coli cells, purified over a Ni column, and further purified over a size-exclusion column by XTAL Biostructures. The NAMPT Enzymatic Reaction The NAMPT enzymatic reactions were carried out in Buffer A (50 mM Hepes pH 7.5, 50 mM NaCl, 5 mM MgCl2, and 1 mM THP) in 96-well V-bottom plates. The compound titrations were performed in a separate dilution plate by serially diluting the compounds in DMSO to make a 100× stock. Buffer A (89 μL) containing 33 nM of NAMPT protein was added to 1 μL of 100× compound plate containing controls (e.g. DMSO or blank). […] Background and signal strength was determined by addition (or non-addition) of a serial dilution of NMN to a pre-quenched enzyme and cofactor mix. Quantification of NMN A mass spectrometry-based assay was used to measure the NAMPT reaction product (NMN) and the internal control (L-Cystathionine). NMN and L-Cystathionine were detected using the services of Biocius Lifesciences with the RapidFire system. […] The components of the sample were ionized with electrospray ionization and the positive ions were detected. […] The fragments are quantified and the analyzed by the following method. % Inhibitions are Determined Using this Method. […] IC50s are Determined Using Excel and this Formula. […]

SMILES	IC50 [nM]
N#CN=C(NCc1ccc(S(=O)(=O)c2ccc(-n3cccn3)c(F)c2)cc1)Nc1ccncc1 [2-cyano-1-[(4-{[3-fluoro-4-(1H-pyrazol-1-yl)benzene]sulfonyl}phenyl)methyl]-3-(pyridin-4-yl)guanidine]	6.1
N#CN=C(NCc1ccc(S(=O)(=O)c2cccc3c2OCO3)cc1)Nc1ccncc1 [1-{[4-(2H-1,3-benzodioxole-4-sulfonyl)phenyl]methyl}-2-cyano-3-(pyridin-4-yl)guanidine]	5.1
